In ChEMBL document CHEMBL3596138, “A double effect molecular switch leads to a novel potent negative allosteric modulator of metabotropic glutamate receptor 5” (Medchemcomm, 2014):
pIC50: −log10 of the molar value.

The chains behind the UniProt entries cited, without tags or fusion partners.
UniProt P31424, whole entry: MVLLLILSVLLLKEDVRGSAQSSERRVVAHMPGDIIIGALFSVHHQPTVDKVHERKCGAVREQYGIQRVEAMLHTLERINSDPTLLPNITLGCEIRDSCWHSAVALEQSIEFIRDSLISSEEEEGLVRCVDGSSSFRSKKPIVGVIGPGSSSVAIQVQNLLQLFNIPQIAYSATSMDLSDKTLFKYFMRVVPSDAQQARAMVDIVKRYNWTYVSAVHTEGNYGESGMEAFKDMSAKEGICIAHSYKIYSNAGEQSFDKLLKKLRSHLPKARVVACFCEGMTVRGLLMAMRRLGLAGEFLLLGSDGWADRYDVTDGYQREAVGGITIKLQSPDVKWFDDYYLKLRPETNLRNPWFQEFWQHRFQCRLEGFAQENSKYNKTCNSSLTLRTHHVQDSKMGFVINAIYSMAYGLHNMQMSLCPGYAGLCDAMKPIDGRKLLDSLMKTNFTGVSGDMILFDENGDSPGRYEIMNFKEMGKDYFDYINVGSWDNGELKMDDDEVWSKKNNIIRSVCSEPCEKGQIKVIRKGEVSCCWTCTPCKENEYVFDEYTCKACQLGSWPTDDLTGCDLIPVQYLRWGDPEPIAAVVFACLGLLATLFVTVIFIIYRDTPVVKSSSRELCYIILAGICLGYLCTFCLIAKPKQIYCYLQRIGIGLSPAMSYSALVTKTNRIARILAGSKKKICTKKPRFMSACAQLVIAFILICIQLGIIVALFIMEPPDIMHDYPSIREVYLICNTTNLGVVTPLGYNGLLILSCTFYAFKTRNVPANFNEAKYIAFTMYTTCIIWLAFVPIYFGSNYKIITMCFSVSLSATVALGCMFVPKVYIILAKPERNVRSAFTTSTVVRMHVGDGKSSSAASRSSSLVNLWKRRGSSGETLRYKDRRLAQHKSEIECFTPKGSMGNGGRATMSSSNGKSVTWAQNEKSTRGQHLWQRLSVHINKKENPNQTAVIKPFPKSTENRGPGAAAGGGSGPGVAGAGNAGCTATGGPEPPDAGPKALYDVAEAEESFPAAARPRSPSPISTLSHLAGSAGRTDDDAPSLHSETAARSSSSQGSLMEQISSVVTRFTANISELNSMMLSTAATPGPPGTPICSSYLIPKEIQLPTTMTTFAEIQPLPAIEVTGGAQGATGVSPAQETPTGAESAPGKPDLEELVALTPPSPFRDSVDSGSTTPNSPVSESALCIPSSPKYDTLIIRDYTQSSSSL

Biological target: Metabotropic glutamate receptor 5 (Rattus norvegicus, UniProt P31424)
Assay: Negative allosteric modulator activity at rat mGlu5 receptor expressed in HEK293 cells assessed as effect on quisqualate-induced inositol phosphate accumulation incubated for 30 mins by florescence assay
Assay type: functional, cell-based

## Cc1cccc(C#Cc2ccccc2)n1
  pIC50: 7.05
